# Reference: patent US20090012268A1 (B R A H M S, published 2009)
# Target: human TSH receptor expressed on cells (human) (UniProt P16473)
# Assay: cell-based or functional assay
substance,measurement,value
bovine TSH (from UniProt P01217 25-120; P01223 21-132) (ligand),EC50 of cAMP accumulation in hTSHr-expressing CHO cells,1 nM
same,maximum cAMP production in JP26 cells at a saturating concentration (100 mIU/ml),280 pmol/mL
